Measurements as given in US20250276962A1, “CONTRACEPTIVE COMPOUNDS AND METHODS” (Regents of the University of Minnesota, priority 2021, published 2025).

Chains of the proteins cited; added tags and fusions are not shown.
UniProt P10276, whole entry, species assumed: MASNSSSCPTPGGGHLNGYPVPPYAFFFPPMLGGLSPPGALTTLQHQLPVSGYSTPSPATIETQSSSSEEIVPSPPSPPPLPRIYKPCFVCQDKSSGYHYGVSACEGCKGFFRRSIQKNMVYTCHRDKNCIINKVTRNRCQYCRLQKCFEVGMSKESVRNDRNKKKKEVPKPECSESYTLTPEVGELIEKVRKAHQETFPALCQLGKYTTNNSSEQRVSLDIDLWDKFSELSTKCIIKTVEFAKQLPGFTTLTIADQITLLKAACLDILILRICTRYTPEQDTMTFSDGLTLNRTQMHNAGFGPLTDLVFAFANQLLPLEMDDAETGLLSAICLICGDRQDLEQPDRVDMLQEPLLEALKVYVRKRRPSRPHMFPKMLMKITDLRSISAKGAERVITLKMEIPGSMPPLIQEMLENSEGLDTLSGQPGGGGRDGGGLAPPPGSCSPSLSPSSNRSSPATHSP
UniProt P13631, whole entry, species assumed: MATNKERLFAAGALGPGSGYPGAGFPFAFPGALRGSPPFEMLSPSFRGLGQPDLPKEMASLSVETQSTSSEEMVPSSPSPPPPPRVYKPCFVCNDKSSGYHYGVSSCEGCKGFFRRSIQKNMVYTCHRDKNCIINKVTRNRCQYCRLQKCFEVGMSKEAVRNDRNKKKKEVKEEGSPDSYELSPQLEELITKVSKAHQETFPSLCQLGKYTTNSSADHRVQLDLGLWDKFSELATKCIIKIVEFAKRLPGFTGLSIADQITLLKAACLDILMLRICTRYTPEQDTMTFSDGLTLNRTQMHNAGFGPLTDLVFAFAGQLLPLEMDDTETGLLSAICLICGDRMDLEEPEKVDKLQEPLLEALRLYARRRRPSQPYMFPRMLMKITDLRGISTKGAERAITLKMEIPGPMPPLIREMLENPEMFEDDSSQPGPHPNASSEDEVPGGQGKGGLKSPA
UniProt P10826, whole entry, species assumed: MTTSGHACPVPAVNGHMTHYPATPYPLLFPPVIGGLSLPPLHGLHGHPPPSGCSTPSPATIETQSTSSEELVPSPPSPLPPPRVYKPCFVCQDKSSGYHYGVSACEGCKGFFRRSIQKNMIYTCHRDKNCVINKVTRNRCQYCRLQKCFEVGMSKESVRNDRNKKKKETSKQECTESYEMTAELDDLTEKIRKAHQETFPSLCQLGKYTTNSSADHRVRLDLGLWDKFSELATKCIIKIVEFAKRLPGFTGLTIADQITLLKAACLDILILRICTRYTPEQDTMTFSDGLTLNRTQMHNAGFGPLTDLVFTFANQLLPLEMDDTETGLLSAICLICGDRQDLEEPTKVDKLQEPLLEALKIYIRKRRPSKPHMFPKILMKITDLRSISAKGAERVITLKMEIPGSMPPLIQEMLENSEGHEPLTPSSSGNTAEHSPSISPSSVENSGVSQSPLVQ

Tests used:
[1] = biological target: RARα (Homo sapiens, UniProt P10276); assay: Transactivation (luciferase) antagonist assay, RARα
[2] = biological target: T1, RARγ (Homo sapiens, UniProt P13631); assay: Transactivation (luciferase) antagonist assay, RARγ; format: cell-based
T1 construct: host or cells: unnamed reporter cells

[3] = biological target: T2, RARβ (Homo sapiens, UniProt P10826); assay: Transactivation (luciferase) antagonist assay, RARβ; format: cell-based
T2 construct: host or cells: unnamed reporter cells

| SMILES | IC50 [1] [µM] | IC50 [2] [µM] | IC50 [3] [µM] |
| --- | --- | --- | --- |
| Cc1ccc(C2=CC(C)(C)Oc3c(Br)cc(-c4ccc(-c5ccc(C(=O)O)cc5)[nH]4)cc32)cc1 | 0.736 | – | – |
| Cc1ccc(C2=CC(C)(C)Oc3c(C)cc(-c4ccc(-c5ccc(C(=O)O)cc5)[nH]4)cc32)cc1 | 0.773 | – | – |
| Cc1ccc(C2=CC(C)(C)Oc3c(Cl)cc(-c4ccc(-c5ccc(C(=O)O)cc5)[nH]4)cc32)cc1 | 0.943 | – | – |
| CCC1(CC)C=C(c2ccc(C)cc2)c2cc(-c3ccc(-c4ccc(C(=O)O)cc4)[nH]3)ccc2O1 | > 3.3 | – | – |
| Cc1ccc(C2=CC(C)(C)Oc3cc(O)c(-c4ccc(-c5ccc(C(=O)O)cc5)[nH]4)cc32)cc1 | > 3.3 | – | – |
| CC1(C)C=C(c2ccc(F)cc2)c2cc(-c3ccc(-c4ccc(C(=O)O)cc4)[nH]3)ccc2O1 | 0.044 | > 3 | > 3 |
| CCc1ccc(C2=CC(C)(C)Oc3ccc(-c4ccc(-c5ccc(C(=O)O)cc5)[nH]4)cc32)cc1 | 0.466 | > 3 | > 3 |
| CC1(C)C=C(c2ccc(C(F)(F)F)cc2)c2cc(-c3ccc(-c4ccc(C(=O)O)cc4)[nH]3)ccc2O1 | 1.31 | > 3 | > 3 |
| COc1ccc(C2=CC(C)(C)Oc3ccc(-c4ccc(-c5ccc(C(=O)O)cc5)[nH]4)cc32)cc1 | 0.368 | > 3 | > 3 |
| CC(C)c1ccc(C2=CC(C)(C)Oc3ccc(-c4ccc(-c5ccc(C(=O)O)cc5)[nH]4)cc32)cc1 | > 3.3 | > 3 | > 3 |
| CC1(C)C=C(c2ccc([N+](=O)[O-])cc2)c2cc(-c3ccc(-c4ccc(C(=O)O)cc4)[nH]3)ccc2O1 | 0.811 | > 3 | > 3 |
| CC1(C)C=C(c2ccc(C(C)(C)C)cc2)c2cc(-c3ccc(-c4ccc(C(=O)O)cc4)[nH]3)ccc2O1 | > 3 | > 3 | > 3 |
